Patent publication US8772480B2, “Inhibitors of PI3 kinase and/or mTOR” (priority 2009, dated 2014)
Read-outs that look alike come from different tables or passages of the source.

Tests used:
[1] = target: T1, mammalian target of rapamycin (mTOR) (Homo sapiens (Human), UniProt P42345); assay: biochemical
[2] = target: T1, mammalian target of rapamycin (mTOR); settings: read-out: mTOR IC50

Row | SMILES | IC50 [1] [µM] | IC50 [2] [µM]
1 | COc1ccc(Nc2ncc(CN3CCC(S(C)(=O)=O)C3)cc2-c2nc(C)nc(N)n2)cn1 (racemic) [Example 228, (RAC)-4-(2-(6-Methoxypyridin-3-Ylamino)-5-((3-(Methylsulfonyl)Pyrrolidin-1-yl)Methyl)Pyridin-3-yl)-6-Methyl-1,3,5-Triazin-2-Amine] | 3.58 | –
2 | COc1cc(Nc2ncc(C(C)(C)O)cc2-c2nc(C)nc(N)n2)cnc1Cl [Example 342, 2-(5-(4-Amino-6-Methyl-1,3,5-Triazin-2-yl)-6-(6-Chloro-5-Methoxypyridin-3-Ylamino)Pyridin-3-yl)Propan-2-ol] | – | 0.474
3 | COc1ncc(Nc2ncc(C3=CCOCC3)cc2-c2nc(C)nc(N)n2)cc1F [Example 343, 4-(5-(3,6-Dihydro-2H-Pyran-4-yl)-2-(5-Fluoro-6-Methoxypyridin-3-Ylamino)Pyridin-3-yl)-6-Methyl-1,3,5-Triazin-2-Amine] | – | > 10
4 | COc1ncc(Nc2ncc(C3CCOCC3)cc2-c2nc(C)nc(N)n2)cc1F [Example 344, 4-(2-(5-Fluoro-6-Methoxypyridin-3-Ylamino)-5-(Tetrahydro-2H-Pyran-4-yl)Pyridin-3-yl)-6-Methyl-1,3,5-Triazin-2-Amine] | – | > 10
5 | COc1ncc(Nc2ncc(C(C)(C)O)cc2-c2cc(N)nc(C)n2)cc1F [Example 345, 2-(5-(6-Amino-2-Methylpyrimidin-4-yl)-6-(5-Fluoro-6-Methoxypyridin-3-Ylamino)Pyridin-3-yl)Propan-2-ol] | – | > 10
6 | COc1ncc(Nc2ncc(C(C)(C)C(=O)O)cc2-c2nc(C)nc(N)n2)cc1F [Example 346, 2-(5-(4-Amino-6-Methyl-1,3,5-Triazin-2-yl)-6-(5-Fluoro-6-Methoxypyridin-3-Ylamino)Pyridin-3-yl)-2-Methylpropanoic Acid] | – | > 10
7 | COc1ncc(Nc2ncc(C(O)C(C)(C)O)cc2-c2nc(C)nc(N)n2)cc1F (centres unmarked) [Example 347, 1-(5-(4-Amino-6-Methyl-1,3,5-Triazin-2-yl)-6-(5-Fluoro-6-Methoxypyridin-3-Ylamino)Pyridin-3-yl)-2-Methylpropane-1,2-Diol] | – | > 10
8 | COc1ncc(Nc2ncc(C(C)(C)O)cc2-c2nc(C)nc(N)n2)cc1C(F)(F)F [Example 348, 2-(5-(4-Amino-6-Methyl-1,3,5-Triazin-2-yl)-6-(6-Methoxy-5-(Trifluoromethyl)Pyridin-3-Ylamino)Pyridin-3-yl)Propan-2-ol] | – | > 10
9 | COc1ncc(Nc2ncc(C(C)O)cc2-c2nc(C)nc(N)n2)cc1F (centres unmarked) [Example 349, 1-(5-(4-Amino-6-Methyl-1,3,5-Triazin-2-yl)-6-(5-Fluoro-6-Methoxypyridin-3-Ylamino)Pyridin-3-yl)Ethanol] | – | > 10
10 | COc1cc(Nc2ncc(C(C)(C)O)cc2-c2nc(C)nc(N)n2)cnc1OC [Example 350, 2-(5-(4-Amino-6-Methyl-1,3,5-Triazin-2-yl)-6-(5,6-Dimethoxypyridin-3-Ylamino)Pyridin-3-yl)Propan-2-ol] | – | 5.49
11 | COc1ncc(Nc2ncc(C(OC(=O)c3cccc(Cl)c3)C(C)(C)O)cc2-c2nc(C)nc(N)n2)cc1F (centres unmarked) [Example 351, 1-(5-(4-Amino-6-Methyl-1,3,5-Triazin-2-yl)-6-(5-Fluoro-6-Methoxypyridin-3-Ylamino)Pyridin-3-yl)-2-Hydroxy-2-Methylpropyl 3-Chlorobenzoate] | – | > 10
12 | Cc1nc(N)nc(-c2cc(C(C)(C)O)cnc2Nc2cncc(F)c2)n1 [Example 352, 2-(5-(4-Amino-6-Methyl-1,3,5-Triazin-2-yl)-6-(5-Fluoropyridin-3-Ylamino)Pyridin-3-yl)Propan-2-ol] | – | 2.54
13 | COc1cncc(Nc2ncc(C(C)(C)O)cc2-c2nc(C)nc(N)n2)c1 [Example 353, 2-(5-(4-Amino-6-Methyl-1,3,5-Triazin-2-yl)-6-(5-Methoxypyridin-3-Ylamino)Pyridin-3-yl)Propan-2-ol] | – | 2.12
14 | COc1ncc(Nc2ncc(C(C)(C)O)cc2-c2nc(C)nc(N)n2)cc1C [Example 354, 2-(5-(4-Amino-6-Methyl-1,3,5-Triazin-2-yl)-6-(6-Methoxy-5-Methylpyridin-3-Ylamino)Pyridin-3-yl)Propan-2-ol] | – | 6
15 | Cc1nc(N)nc(-c2cc(C(C)(C)O)cnc2Nc2cncc(S(C)(=O)=O)c2)n1 [Example 355, 2-(5-(4-Amino-6-Methyl-1,3,5-Triazin-2-yl)-6-(5-(Methylsulfonyl)Pyridin-3-Ylamino)Pyridin-3-yl)Propan-2-ol] | – | > 10
16 | Cc1nc(N)nc(-c2cc(C(C)(C)O)cnc2Nc2cncc(S(=O)(=O)c3ccccc3)c2)n1 [Example 356, 2-(5-(4-Amino-6-Methyl-1,3,5-Triazin-2-yl)-6-(5-(Phenylsulfonyl)Pyridin-3-Ylamino)Pyridin-3-yl)Propan-2-ol] | – | 7.12

Row | SMILES | IC50 [1] [µM] | IC50 [2] [µM]
17 | COc1ncc(Nc2ncc(CN3CCN(C(=O)N(C)C(C)C)CC3)cc2-c2nc(C)nc(N)n2)cc1F [Example 357, 4-((5-(4-Amino-6-Methyl-1,3,5-Triazin-2-yl)-6-(5-Fluoro-6-Methoxypyridin-3-Ylamino)Pyridin-3-yl)Methyl)-N-Isopropyl-N-Methylpiperazine-1-Carboxamide] | – | > 10
18 | COc1ncc(Nc2ncc([C@@H](C)N3CCN(S(C)(=O)=O)C[C@@H]3C)cc2-c2nc(C)nc(N)n2)cn1 [Example 362, 4-(2-(2-Methoxypyrimidin-5-Ylamino)-5-((R)-1-((S)-2-Methyl-4-(Methylsulfonyl)Piperazin-1-yl)Ethyl)Pyridin-3-yl)-6-Methyl-1,3,5-Triazin-2-Amine] | – | 1.21
19 | Cc1nc(N)nc(-c2cc([C@@H](C)N3CCN(S(C)(=O)=O)C[C@@H]3C)cnc2Nc2ccc(Cl)nc2)n1 [Example 363, 4-(2-(6-Chloropyridin-3-Ylamino)-5-((R)-1-((S)-2-Methyl-4-(Methylsulfonyl)Piperazin-1-yl)Ethyl)Pyridin-3-yl)-6-Methyl-1,3,5-Triazin-2-Amine] | – | > 10
20 | COc1ncc(Nc2ncc(CN3CCN(S(C)(=O)=O)[C@H](C)C3)cc2-c2nc(C)nc(N)n2)cc1F [Example 364, (R)-4-(2-(5-Fluoro-6-Methoxypyridin-3-Ylamino)-5-((3-Methyl-4-(Methylsulfonyl)Piperazin-1-yl)Methyl)Pyridin-3-yl)-6-Methyl-1,3,5-Triazin-2-Amine] | – | > 10
21 | COc1cnc(Nc2cnc(Cl)c(N)c2)c(-c2nc(C)nc(N)n2)c1 [Example 368, N5-(3-(4-Amino-6-Methyl-1,3,5-Triazin-2-yl)-5-Methoxypyridin-2-yl)-2-Chloropyridine-3,5-Diamine] | – | 0.262
22 | Cc1nc(N)nc(-c2cc(C(C)N3CCOCC3)cnc2Nc2cnc(Cl)c(NS(C)(=O)=O)c2)n1 (centres unmarked) [Example 369, N-(5-(3-(4-Amino-6-Methyl-1,3,5-Triazin-2-yl)-5-(1-Morpholinoethyl)Pyridin-2-Ylamino)-2-Chloropyridin-3-yl)Methanesulfonamide] | – | 0.472
23 | Cc1nc(N)nc(-c2cc(C(C)N3CCOCC3)cnc2Nc2cnc(Cl)c(NS(=O)(=O)N(C)C)c2)n1 (centres unmarked) [Example 370, N-(5-(3-(4-Amino-6-Methyl-1,3,5-Triazin-2-yl)-5-(1-Morpholinoethyl)Pyridin-2-Ylamino)-2-Chloropyridin-3-yl)-N,N-Dimethylaminosulfamide] | – | 0.7
24 | Cc1nc(N)nc(-c2cc([C@@H](C)N3CCOCC3)cnc2Nc2cnc(Cl)c(NS(=O)(=O)N(C)C)c2)n1 [Example 373, (R)—N-(5-(3-(4-Amino-6-Methyl-1,3,5-Triazin-2-yl)-5-(1-Morpholinoethyl)Pyridin-2-Ylamino)-2-Chloropyridin-3-yl)-N,N-Dimethylaminosulfamide] | – | 0.315
25 | Cc1nc(N)nc(-c2cc([C@H](C)N3CCOCC3)cnc2Nc2cnc(Cl)c(NS(=O)(=O)N(C)C)c2)n1 [Example 374, (S)—N-(5-(3-(4-Amino-6-Methyl-1,3,5-Triazin-2-yl)-5-(1-Morpholinoethyl)Pyridin-2-Ylamino)-2-Chloropyridin-3-yl)-N,N-Dimethylaminosulfamide] | – | 0.388
26 | Cc1nc(N)cc(-c2cccnc2Nc2cnc(Cl)c(NS(=O)(=O)N(C)C)c2)n1 [Example 375, N-(5-(3-(6-Amino-2-Methylpyrimidin-4-yl)Pyridin-2-Ylamino)-2-Chloropyridin-3-yl)-N,N-Dimethylaminosulfamide] | – | 3.3
27 | COCCOc1cnc(Nc2cnc(C)c(NS(C)(=O)=O)c2)c(-c2nc(C)nc(N)n2)c1 [Example 376, N-(5-(3-(4-Amino-6-Methyl-1,3,5-Triazin-2-yl)-5-(2-Methoxyethoxy)Pyridin-2-Ylamino)-2-Methylpyridin-3-yl)Methanesulfonamide] | – | 1.94
28 | Cc1nc(N)nc(-c2cccnc2Nc2cnc(C)c(NS(C)(=O)=O)c2)n1 [Example 377, N-(5-(3-(4-Amino-6-Methyl-1,3,5-Triazin-2-yl)Pyridin-2-Ylamino)-2-Methylpyridin-3-yl)Methanesulfonamide] | – | > 10
29 | Cc1nc(N)nc(-c2cc(Cl)cnc2Nc2cnc(C)c(NS(C)(=O)=O)c2)n1 [Example 378, N-(5-(3-(4-Amino-6-Methyl-1,3,5-Triazin-2-yl)-5-Chloropyridin-2-Ylamino)-2-Methylpyridin-3-yl)Methanesulfonamide] | – | > 10
30 | C=Cc1cnc(Nc2cnc(Cl)c(NS(C)(=O)=O)c2)c(-c2cc(N)nc(C)n2)c1 [Example 380, N-(5-(3-(6-Amino-2-Methylpyrimidin-4-yl)-5-Vinylpyridin-2-Ylamino)-2-Chloropyridin-3-yl)Methanesulfonamide] | – | 0.264
31 | COc1ncc(Nc2ncc(CN3CCN4C(CCS4(=O)=O)C3)cc2-c2nc(C)nc(N)n2)cc1F (centres unmarked) [Example 383, 4-(5-((1,1-Dioxidohexahydro-5H-Isothiazolo[2,3-A]Pyrazin-5-yl)Methyl)-2-((5-Fluoro-6-Methoxy-3-Pyridinyl)Amino)-3-Pyridinyl)-6-Methyl-1,3,5-Triazin-2-Amine] | – | > 10
32 | Cc1nc(N)nc(-c2cc(Cl)cnc2Nc2cnc(Cl)c(NS(=O)(=O)N(C)C)c2)n1 [Example 384, N′-(5-((3-(4-Amino-6-Methyl-1,3,5-Triazin-2-yl)-5-Chloro-2-Pyridinyl)Amino)-2-Chloro-3-Pyridinyl)-N,N-Dimethylsulfamide] | – | 0.163
